Test results reported in article PMC11311990, “Identification of Ribonuclease Inhibitors for the Control of Pathogenic Bacteria” (International Journal of Molecular Sciences, 2024).

The chains behind the UniProt entries cited, without tags or fusion partners. Residues count along the entry.
UniProt P21499, 2-813: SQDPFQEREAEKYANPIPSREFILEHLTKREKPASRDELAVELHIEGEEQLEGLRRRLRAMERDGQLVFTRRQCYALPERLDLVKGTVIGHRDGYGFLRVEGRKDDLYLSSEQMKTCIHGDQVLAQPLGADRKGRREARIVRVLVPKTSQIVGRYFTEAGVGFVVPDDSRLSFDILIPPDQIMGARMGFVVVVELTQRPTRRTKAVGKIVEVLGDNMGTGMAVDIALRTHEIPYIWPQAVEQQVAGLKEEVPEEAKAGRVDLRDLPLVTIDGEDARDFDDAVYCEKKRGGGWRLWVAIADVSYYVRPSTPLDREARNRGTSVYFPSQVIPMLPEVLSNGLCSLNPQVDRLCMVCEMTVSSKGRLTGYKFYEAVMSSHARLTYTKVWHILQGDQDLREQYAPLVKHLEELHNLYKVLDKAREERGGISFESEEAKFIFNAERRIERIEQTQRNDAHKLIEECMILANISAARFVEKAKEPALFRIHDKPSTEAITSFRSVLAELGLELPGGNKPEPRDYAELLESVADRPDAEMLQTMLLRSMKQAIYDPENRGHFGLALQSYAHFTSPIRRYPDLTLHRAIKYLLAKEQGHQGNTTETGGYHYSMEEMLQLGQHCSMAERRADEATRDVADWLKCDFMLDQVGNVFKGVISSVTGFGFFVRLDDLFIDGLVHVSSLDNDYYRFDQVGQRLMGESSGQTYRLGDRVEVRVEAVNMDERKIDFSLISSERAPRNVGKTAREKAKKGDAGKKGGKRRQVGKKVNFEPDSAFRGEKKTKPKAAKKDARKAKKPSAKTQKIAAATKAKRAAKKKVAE

Target: T1, RNase R (Escherichia coli, UniProt P21499)
T1 construct: gene rnr; full-length recombinant, N-terminal His tag (pET15b derivative), expressed in E. coli BL21(DE3), IMAC purified
Type: biochemical
Settings: 10 mM compound, 10 nM enzyme, 10 nM poly(A), 1 mM MgCl2, 100 mM KCl, pH 8, 37 °C, DMSO

`CC(C)(C)c1ccc(NC(=O)Nc2cccc(S(N)(=O)=O)c2)cc1` [HTS05225, 3-({[4-(tert-butyl)anilino]carbonyl}amino)benzenesulfonamide] was tested, and the “gel exoribonuclease assay, 5'-32P 35-nt poly(A)” value was “HTS05225 and HTS08348, besides inhibiting RNase II activity, were found to inhibit RNase R”.
`CCc1ccc(C(=O)Nc2ccc(S(N)(=O)=O)cc2)cc1` [HTS08348, N-[4-(aminosulfonyl)phenyl]-4-ethylbenzamide] was tested, and the “gel exoribonuclease assay, 5'-32P 35-nt poly(A)” value was “HTS05225 and HTS08348, besides inhibiting RNase II activity, were found to inhibit RNase R”.
